# Target: endogenous mouse alpha-synuclein in wild-type mouse brain (mouse) (UniProt O55042)
# Experiment: cell-based or functional assay
substance,measurement,value
K43&45R alpha-synuclein aggregate (from UniProt P37840 1-140),seed activity in vivo (anti-pS129-positive aggregates in mouse brain 3 months after inoculation) (times the WT aggregate),6

# Source: patent US20250296968A1
